This note sets out measurements from patent US11298361B2, “Fused benzazepines for treatment of Tourette's Syndrome” (EMALEX BIOSCIENCES, INC., priority 2012, dated 2022).

By UniProt entry, the sequences of proteins in these tests, tags left out.
UniProt P61169, whole entry: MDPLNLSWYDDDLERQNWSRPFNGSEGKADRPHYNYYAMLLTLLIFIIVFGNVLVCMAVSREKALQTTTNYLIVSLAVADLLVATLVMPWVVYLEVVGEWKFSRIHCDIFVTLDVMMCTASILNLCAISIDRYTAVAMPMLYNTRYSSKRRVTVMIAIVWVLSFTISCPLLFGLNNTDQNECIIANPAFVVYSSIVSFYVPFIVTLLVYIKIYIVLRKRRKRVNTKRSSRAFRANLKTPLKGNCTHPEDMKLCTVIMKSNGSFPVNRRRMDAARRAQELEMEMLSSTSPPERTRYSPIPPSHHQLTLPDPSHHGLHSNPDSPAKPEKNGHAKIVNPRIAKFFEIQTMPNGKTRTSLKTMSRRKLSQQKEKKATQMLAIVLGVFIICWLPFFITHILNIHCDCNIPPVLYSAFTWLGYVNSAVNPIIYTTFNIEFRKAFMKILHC
UniProt P14842, whole entry: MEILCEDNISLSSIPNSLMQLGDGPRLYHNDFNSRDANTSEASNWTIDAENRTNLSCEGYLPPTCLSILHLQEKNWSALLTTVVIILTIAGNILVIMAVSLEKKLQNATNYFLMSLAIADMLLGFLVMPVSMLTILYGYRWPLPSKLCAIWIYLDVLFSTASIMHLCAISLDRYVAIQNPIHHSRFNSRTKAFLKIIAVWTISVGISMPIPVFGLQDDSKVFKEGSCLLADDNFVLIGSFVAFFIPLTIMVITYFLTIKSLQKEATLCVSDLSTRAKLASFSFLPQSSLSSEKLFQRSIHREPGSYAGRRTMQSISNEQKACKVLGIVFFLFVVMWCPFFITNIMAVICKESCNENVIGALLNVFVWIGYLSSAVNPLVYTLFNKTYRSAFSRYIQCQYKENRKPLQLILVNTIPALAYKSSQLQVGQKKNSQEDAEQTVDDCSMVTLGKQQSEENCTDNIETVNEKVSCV
UniProt P35462, whole entry: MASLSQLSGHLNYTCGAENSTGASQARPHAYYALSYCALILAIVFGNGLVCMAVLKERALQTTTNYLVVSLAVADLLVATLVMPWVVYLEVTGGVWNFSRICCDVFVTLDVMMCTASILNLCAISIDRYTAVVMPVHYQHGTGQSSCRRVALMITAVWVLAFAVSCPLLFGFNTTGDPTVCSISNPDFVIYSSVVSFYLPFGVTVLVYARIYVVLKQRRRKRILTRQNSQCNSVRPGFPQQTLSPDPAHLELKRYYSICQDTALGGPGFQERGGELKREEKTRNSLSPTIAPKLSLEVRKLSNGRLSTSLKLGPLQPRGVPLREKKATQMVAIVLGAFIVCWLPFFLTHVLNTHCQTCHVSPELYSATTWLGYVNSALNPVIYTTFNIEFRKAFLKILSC
UniProt P21917, whole entry: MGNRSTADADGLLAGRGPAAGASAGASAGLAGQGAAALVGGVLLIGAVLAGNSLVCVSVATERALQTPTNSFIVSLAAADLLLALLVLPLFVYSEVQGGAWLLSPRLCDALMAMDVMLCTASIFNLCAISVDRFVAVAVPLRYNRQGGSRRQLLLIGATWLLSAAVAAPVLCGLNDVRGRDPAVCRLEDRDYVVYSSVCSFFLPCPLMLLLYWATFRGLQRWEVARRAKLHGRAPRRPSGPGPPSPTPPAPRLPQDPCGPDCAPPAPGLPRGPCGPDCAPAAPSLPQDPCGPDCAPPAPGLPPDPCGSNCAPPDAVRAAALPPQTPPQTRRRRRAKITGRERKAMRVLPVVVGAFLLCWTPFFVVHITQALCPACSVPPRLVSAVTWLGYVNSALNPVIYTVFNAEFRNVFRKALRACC
UniProt P14416, whole entry: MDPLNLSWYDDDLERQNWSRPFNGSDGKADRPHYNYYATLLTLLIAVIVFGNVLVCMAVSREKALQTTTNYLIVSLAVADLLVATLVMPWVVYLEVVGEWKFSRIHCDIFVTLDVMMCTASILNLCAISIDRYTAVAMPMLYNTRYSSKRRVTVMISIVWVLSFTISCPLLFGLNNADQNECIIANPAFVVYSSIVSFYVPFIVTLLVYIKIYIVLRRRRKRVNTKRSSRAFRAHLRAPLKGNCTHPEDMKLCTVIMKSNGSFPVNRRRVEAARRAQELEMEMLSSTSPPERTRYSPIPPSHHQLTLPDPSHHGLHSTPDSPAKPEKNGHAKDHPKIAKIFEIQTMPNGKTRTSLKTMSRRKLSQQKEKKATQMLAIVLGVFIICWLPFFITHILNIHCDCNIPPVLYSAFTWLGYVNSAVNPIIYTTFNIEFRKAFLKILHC

One assay addresses D2 receptor (Rattus norvegicus, UniProt P61169). Nature of the assay: Binding versus D2-selective ligand ^3H-spiperone. The note with it: versus ^3H-spiperone.
The next assay deals with serotonin receptor (Rattus norvegicus, UniProt P14842). Nature of the assay: Binding versus ^3H-ketanserin.
The target of another assay is hD3 receptor (Homo sapiens, UniProt P35462). Briefly: Binding to cloned human receptors. As to the method:
(§1) Activation of D1 receptors by dopamine and similar agonists stimulates the production of cyclic AMP (cAMP) via activation of adenylate cyclase. […] To ensure that there was no species specificity to the receptor binding profile, ecopipam's potency and selectivity were evaluated using cloned human receptors. […] Positron emission tomography (PET) studies using radiolabeled ecopipam have been conducted in healthy volunteers (Karlsson et al., Psychopharmacol. 121:300-308, 1995).

For the next assay, the target named is hD4 receptor (Homo sapiens, UniProt P21917). Briefly: Binding to cloned human receptors. The method, then:
as §1

In the next assay the target is T1, hD2 receptor (Homo sapiens, UniProt P14416).
T1 construct: expressed in transfected cells
Briefly: Binding to cloned human receptors. The method, then:
Activation of D1 receptors by dopamine and similar agonists stimulates the production of cyclic AMP (cAMP) via activation of adenylate cyclase. In vitro studies on this neuronal second messenger confirmed that ecopipam was an antagonist. […] To ensure that there was no species specificity to the receptor binding profile, ecopipam's potency and selectivity were evaluated using cloned human receptors. Ecopipam bound with high affinity to hD1/hD5 receptors, but was >700-fold selective versus the hD2, hD3, and hD4 receptors. Positron emission tomography (PET) studies using radiolabeled ecopipam have been conducted in healthy volunteers (Karlsson et al., Psychopharmacol. 121:300-308, 1995).

With `CN1CCc2cc(Cl)c(O)cc2[C@H]2c3ccccc3CC[C@@H]21` [ecopipam, (−)-trans-6,7,7a,8,9,13b-hexahydro-3-chloro-2-hydroxy-N-methyl-5H-benzo [d]-naphtho-[2,1-b]azepine], the “Selectivity for the D1 vs. the D2 receptor” value at D2 receptor is given as “roughly 1000 fold”. Besides, on serotonin receptor, the “Selectivity versus the serotonin receptor” value is roughly 100 fold. Also, at hD3 receptor, the “Selectivity versus hD3 receptor” value is on record as greater than 700 fold. Besides, at hD4 receptor, the “Selectivity versus hD4 receptor” value is reported as greater than 700 fold. Moreover, the “Selectivity versus hD2 receptor” value on hD2 receptor was greater than 700 fold.
